Experimental data reported in PubChem BioAssay AID1441 (NMMLSC, 2008).
The entries are a selection whose mix differs from that of the whole data set. Calls of active or inactive are those of the source. How the calls were made is not given here.

By UniProt entry, the sequences of proteins in these tests, tags left out.
UniProt O15492, whole entry, looked up: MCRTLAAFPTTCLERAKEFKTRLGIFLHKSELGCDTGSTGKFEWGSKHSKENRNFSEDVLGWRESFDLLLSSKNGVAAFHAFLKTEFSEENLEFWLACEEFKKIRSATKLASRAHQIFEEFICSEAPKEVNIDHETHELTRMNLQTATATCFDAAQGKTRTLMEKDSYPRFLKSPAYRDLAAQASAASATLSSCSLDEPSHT
UniProt P09471, whole entry, looked up: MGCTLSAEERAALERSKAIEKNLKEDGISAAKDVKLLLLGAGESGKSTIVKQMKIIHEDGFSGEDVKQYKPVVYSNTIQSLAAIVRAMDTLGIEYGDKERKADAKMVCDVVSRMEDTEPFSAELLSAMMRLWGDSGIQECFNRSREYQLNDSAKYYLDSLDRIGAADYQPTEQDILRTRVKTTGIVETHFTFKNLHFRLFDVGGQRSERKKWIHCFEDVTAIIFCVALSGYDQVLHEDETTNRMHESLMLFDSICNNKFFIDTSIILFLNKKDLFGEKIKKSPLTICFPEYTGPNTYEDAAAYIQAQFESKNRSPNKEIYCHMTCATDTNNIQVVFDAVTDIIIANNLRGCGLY

Each compound was assayed against Regulator of G-protein signaling 16 (Homo sapiens) + Guanine nucleotide-binding protein G(o) subunit alpha (Homo sapiens) (UniProt O15492+P09471) (assay: RGS16-Galphao interaction inhibitors and enhancers – biochemical, human proteins, multiplexed bead flow cytometry, primary screen (AID 1441;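 further: Galphao activated by GDP with aluminum fluoride before binding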)). Conditions: bead-based flow cytometry RGS16-Galphao binding, fluorescence; at 10 µM; actives lie on both sides.
In the case of `CP(=O)(Nc1cccc(Br)c1)Oc1ccccc1` (configuration not stated), the binding response (% of control) was inactive: 98.7%. `Cc1ccc(C)c(NP(C)(=O)Oc2ccccc2)c1` (configuration not stated) was tested, and the binding response (% of control) was inactive: 14.1%. For `CCCOP(=S)(Nc1nc(N)cc(=O)[nH]1)OCCC`, the binding response (% of control) was inactive: 99.2%. For `Cc1cc(C)cc(OP(C)(=O)Nc2ccc(C)cc2C)c1` (configuration not stated), the binding response (% of control) was inactive: 103%. In the case of `Cc1cccc(OCC(=O)OC2CN3CCC2CC3)c1` (configuration not stated), the binding response (% of control) was inactive: 114%. `O=[As](O)(c1cccc(O)c1)c1cccc(O)c1` was tested, and the binding response (% of control) was inactive: 104%. `CCOC(=O)c1ccc(NP(C)(=O)Oc2cc(C)cc(C)c2)cc1` (configuration not stated) was tested, and the binding response (% of control) was inactive: 112%. With `O=C(OC1CN2CCC1CC2)c1ccc(Cl)cc1` (configuration not stated) the binding response (% of control) was inactive: 97.8%. `COc1ccccc1OP(C)(=O)Nc1cccc(Br)c1` (configuration not stated) was tested, and the binding response (% of control) was inactive: 99.9%. In the case of `COc1cc(C(=O)NCC2(N3CCOCC3)CCCCC2)cc(Cl)c1OC(C)C`, the binding response (% of control) was inactive: 111%. In the case of `CN(C(=O)Cc1ccccc1)[C@@H]1CC[C@]2(CCCO2)C[C@H]1N1CCCC1`, the binding response (% of control) was inactive: 82.4%. For `CC1=NCCc2c1[nH]c1ccccc21.O=[N+]([O-])c1cc([N+](=O)[O-])c(O)c([N+](=O)[O-])c1`, the binding response (% of control) was inactive: 111%. `O=[N+]([O-])c1ccc2c(c1)nnn2O` was tested, and the binding response (% of control) was inactive: 251%. With `NC(=O)Nc1ccc([As](=O)(O)O)cc1` the binding response (% of control) was inactive: 93.8%. With `O=C(O)COc1ccc([As](=O)(O)O)cc1[N+](=O)[O-]` the binding response (% of control) was inactive: 98.5%. `O=P(Nc1nccs1)(Oc1ccccc1)Oc1ccccc1` was tested, and the binding response (% of control) was inactive: 90%. `O=P(Nc1nccs1)(c1ccccc1)c1nc2ccccc2s1` (configuration not stated) was tested, and the binding response (% of control) was inactive: 98.6%. `O=C(O)c1cccc(Nc2c([N+](=O)[O-])cc([N+](=O)[O-])cc2[N+](=O)[O-])c1` was tested, and the binding response (% of control) was inactive: 99.8%. For `CS(=O)(=O)c1cc([N+](=O)[O-])c2no[n+]([O-])c2c1`, the binding response (% of control) was inactive: 29.8%. `CCCOc1ccc(NP(C)(=O)Oc2ccc(Cl)cc2)cc1` (configuration not stated) was tested, and the binding response (% of control) was inactive: 99.3%. In the case of `CP(=O)(Nc1ccc(SC(F)(F)F)cc1)Oc1ccccc1` (configuration not stated), the binding response (% of control) was inactive: 94.6%. For `Nc1cccc([As](=O)(O)c2ccccc2)c1`, the binding response (% of control) was inactive: 101%. For `O=[As](O)(c1cccs1)c1cccs1`, the binding response (% of control) was inactive: 96.5%. For `Cc1ccc(OCC(=O)OC2CN3CCC2CC3)cc1` (configuration not stated), the binding response (% of control) was inactive: 88.2%. In the case of `O=P1(Nc2ccc(Br)cn2)COc2ccccc2OC1`, the binding response (% of control) was inactive: 106%. For `CN1CCCCC1COC(=O)C1(O)c2ccccc2CCc2ccccc21` (configuration not stated), the binding response (% of control) was inactive: 103%. With `COc1ccccc1OP(C)(=O)Nc1c(C)cccc1C` (configuration not stated) the binding response (% of control) was inactive: 96.2%. With `CCOC(=O)C(CC)C1=NC(C)(C)Cc2ccccc21.O=[N+]([O-])c1cc([N+](=O)[O-])c(O)c([N+](=O)[O-])c1` (configuration not stated) the binding response (% of control) was inactive: 92.9%. In the case of `CN(C)C1(CNC(=O)c2ccc(S(C)(=O)=O)cc2)CCCCC1`, the binding response (% of control) was inactive: 102%. `O=[N+]([O-])c1cc([N+](=O)[O-])c(Nc2nnnn2CCO)c([N+](=O)[O-])c1` was tested, and the binding response (% of control) was inactive: 97.8%. `CC1CCC(C(C)C)C(OP(=O)(Nc2ccccn2)c2ccccc2)C1` (configuration not stated) was tested, and the binding response (% of control) was inactive: 107%. In the case of `Cc1nn(-c2ccccc2)c2c1P(=O)(N1CCOCC1)N(C)C(c1ccccc1)=N2` (configuration not stated), the binding response (% of control) was inactive: 103%. With `COc1cc(C2NCCC3(OCCO3)C2(C)C)cc(OC)c1OC.O=[N+]([O-])c1cc([N+](=O)[O-])c(O)c([N+](=O)[O-])c1` (configuration not stated) the binding response (% of control) was inactive: 101%. For `CN(C(=O)Cc1ccc(Cl)c(Cl)c1)[C@@H]1CCCC[C@H]1N1CCCC1`, the binding response (% of control) was inactive: 104%. In the case of `CC(C)/C=N\N=C(\N)N[N+](=O)[O-]`, the binding response (% of control) was inactive: 94.8%. With `Cc1nc2ccc3ccccc3c2s1.O=[N+]([O-])c1cc([N+](=O)[O-])c(O)c([N+](=O)[O-])c1` the binding response (% of control) was inactive: 100%. With `O=[As](O)(c1ccccc1Br)c1ccccc1Br` the binding response (% of control) was inactive: 102%. `CC(C)(C)C(=O)NC(Sc1ncccn1)C(Cl)(Cl)Cl` (configuration not stated) was tested, and the binding response (% of control) was inactive: 98.4%. With `Clc1n[nH]nc1-c1nn[nH][15n]1` the binding response (% of control) was inactive: 99.8%. With `O=[N+]([O-])c1cc([N+](=O)[O-])c(-n2nnc3ccccc32)c([N+](=O)[O-])c1` the binding response (% of control) was inactive: 72.6%. `CCOP(=O)(Nc1ccc(C)cn1)OCC` was tested, and the binding response (% of control) was inactive: 95.8%. `CCC(C)N(CC(C)C)C(=S)SC(NC(C)=O)C(Cl)(Cl)Cl` (configuration not stated) was tested, and the binding response (% of control) was inactive: 105%. With `CP(=O)(Nc1ccccn1)Oc1ccc(Cl)cc1` (configuration not stated) the binding response (% of control) was inactive: 101%. `CCOP(C)(=S)SCC(=O)NC(C)C(=O)O` (configuration not stated) was tested, and the binding response (% of control) was inactive: 94.2%. In the case of `CCOC(=O)c1ccc(NC(=O)C(C)(CCl)SC)cc1` (configuration not stated), the binding response (% of control) was inactive: 103%. For `CCOC(=O)c1ccc(NP(C)(=O)Oc2ccc(OC)cc2)cc1` (configuration not stated), the binding response (% of control) was inactive: 114%. With `Cc1cc(C)cc(OP(C)(=O)Nc2ccc(SC(F)(F)F)cc2)c1` (configuration not stated) the binding response (% of control) was inactive: 110%. In the case of `CP(=O)(NC(=O)Nc1ccccc1)Oc1ccccc1` (configuration not stated), the binding response (% of control) was inactive: 97.4%. In the case of `O=C(COc1ccccc1)OC1CN2CCC1CC2` (configuration not stated), the binding response (% of control) was inactive: 90.8%. For `CCc1ccc(OP(C)(=O)N2CCN(c3ccc([N+](=O)[O-])cc3)CC2)cc1` (configuration not stated), the binding response (% of control) was inactive: 100%. In the case of `CP(=O)(Oc1ccccc1)OC(c1ccccc1)C(F)(F)F` (configuration not stated), the binding response (% of control) was inactive: 105%. `COP1(=S)c2c(C)nn(CCC#N)c2N=C(c2ccc(F)cc2)N1C` (configuration not stated) was tested, and the binding response (% of control) was inactive: 100%. With `CP(=O)(Nc1ccc(SC(F)(F)F)cc1)Oc1ccc(Cl)cc1` (configuration not stated) the binding response (% of control) was inactive: 102%. With `Cc1cccc(C)c1OP(C)(=O)Nc1ccc(SC(F)(F)F)cc1` (configuration not stated) the binding response (% of control) was inactive: 138%. With `COc1ccccc1OP(C)(=O)Nc1ccccc1` (configuration not stated) the binding response (% of control) was inactive: 103%. `Cc1cc(SC(NC=O)C(Cl)(Cl)Cl)ncn1` (configuration not stated) was tested, and the binding response (% of control) was inactive: 101%. With `O=[N+]([O-])c1ccc(Nc2ccc(Oc3ccc([N+](=O)[O-])cc3[N+](=O)[O-])cc2)c([N+](=O)[O-])c1` the binding response (% of control) was inactive: 97.7%. For `CP(=O)(Nc1ccccc1Br)Oc1ccccc1` (configuration not stated), the binding response (% of control) was inactive: 157%. `CP(=S)(Nn1cnnc1)Oc1ccccc1` (configuration not stated) was tested, and the binding response (% of control) was inactive: 186%. `CCOC(=O)Nc1cccc([As](=O)(O)O)c1` was tested, and the binding response (% of control) was inactive: 107%. In the case of `Cc1cc(SC(NC(=O)c2ccccc2)C(Cl)(Cl)Cl)nc(C(C)C)n1` (configuration not stated), the binding response (% of control) was inactive: 98%. In the case of `CCOC(=O)Nc1ccc([As](=O)(O)O)c(O)c1`, the binding response (% of control) was inactive: 97.9%.
